Source: patent US20080014191A1

The chains behind the UniProt entries cited, without tags or fusion partners. Where a name states a change or a piece, a line headed by the entry shows the natural chain unless it says otherwise.
UniProt P13569, whole entry: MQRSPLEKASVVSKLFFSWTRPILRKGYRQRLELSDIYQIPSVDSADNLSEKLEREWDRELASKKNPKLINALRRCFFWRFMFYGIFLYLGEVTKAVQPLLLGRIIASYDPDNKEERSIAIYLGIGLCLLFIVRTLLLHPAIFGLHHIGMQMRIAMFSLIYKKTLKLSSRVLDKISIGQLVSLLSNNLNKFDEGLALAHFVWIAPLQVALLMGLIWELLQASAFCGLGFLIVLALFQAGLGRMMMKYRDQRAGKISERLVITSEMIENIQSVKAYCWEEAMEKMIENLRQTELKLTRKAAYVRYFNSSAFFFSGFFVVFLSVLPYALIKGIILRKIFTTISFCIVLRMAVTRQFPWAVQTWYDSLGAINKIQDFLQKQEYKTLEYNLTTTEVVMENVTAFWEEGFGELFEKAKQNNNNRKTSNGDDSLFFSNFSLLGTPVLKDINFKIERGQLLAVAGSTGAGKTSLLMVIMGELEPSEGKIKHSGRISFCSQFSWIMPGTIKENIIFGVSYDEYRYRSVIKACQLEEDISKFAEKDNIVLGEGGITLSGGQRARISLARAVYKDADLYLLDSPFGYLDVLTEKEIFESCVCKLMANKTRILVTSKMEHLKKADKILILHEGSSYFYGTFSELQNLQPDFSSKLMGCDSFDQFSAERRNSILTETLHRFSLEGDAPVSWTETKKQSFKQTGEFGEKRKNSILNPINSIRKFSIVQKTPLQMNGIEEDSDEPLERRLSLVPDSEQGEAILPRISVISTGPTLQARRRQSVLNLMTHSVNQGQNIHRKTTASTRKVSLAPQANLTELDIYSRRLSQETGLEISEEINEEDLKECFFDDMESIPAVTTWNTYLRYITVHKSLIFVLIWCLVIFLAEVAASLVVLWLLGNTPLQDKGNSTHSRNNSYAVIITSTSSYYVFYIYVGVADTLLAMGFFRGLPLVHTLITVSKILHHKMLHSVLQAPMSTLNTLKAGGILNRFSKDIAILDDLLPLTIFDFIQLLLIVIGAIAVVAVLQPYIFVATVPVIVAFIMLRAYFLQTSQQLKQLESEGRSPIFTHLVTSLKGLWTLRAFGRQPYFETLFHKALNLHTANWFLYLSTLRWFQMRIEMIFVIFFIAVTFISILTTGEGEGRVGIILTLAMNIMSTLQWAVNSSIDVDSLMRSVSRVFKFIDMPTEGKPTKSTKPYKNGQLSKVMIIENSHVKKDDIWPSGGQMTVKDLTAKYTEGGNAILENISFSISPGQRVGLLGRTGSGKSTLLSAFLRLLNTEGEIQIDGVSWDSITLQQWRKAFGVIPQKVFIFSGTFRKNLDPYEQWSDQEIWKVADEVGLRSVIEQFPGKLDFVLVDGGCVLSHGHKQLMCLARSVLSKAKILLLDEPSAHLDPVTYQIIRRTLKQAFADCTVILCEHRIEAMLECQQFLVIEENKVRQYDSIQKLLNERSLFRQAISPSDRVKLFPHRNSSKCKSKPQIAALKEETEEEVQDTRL

Key:
[1] = target: ΔF508 CFTR (Homo sapiens (Human)) (UniProt P13569); assay: CFTR co-IP, MudPIT MS; ΔF508
[2] = target: wild-type cystic fibrosis transmembrane conductance regulator (CFTR) (Homo sapiens (Human)) (UniProt P13569); assay: CFTR co-IP, MudPIT MS; BHK wt, Calu-3, HT29, T84

| % sequence coverage [1] [%] | total peptide spectra [1] [spectra] | unique peptide spectra [1] [spectra] | % sequence coverage [2] [%] | total peptide spectra [2] [spectra] | unique peptide spectra [2] [spectra] | Substance |
| --- | --- | --- | --- | --- | --- | --- |
| 16 | 52 | 5 | 12 | 16 | 3 | ubiquitin B (from UniProt P0CG49 1-76) |
| 6 | 117 | 5 | 5 | 36 | 3 | ubiquitin C (from UniProt Q63429 1-76) |
